Reference: patent US20100144779A1, “Marine Alkalod Makaluvamines and Derivatives Thereof” (THE UAB RESEARCH FOUNDATION, priority 2007, published 2010)

By UniProt entry, the sequences of proteins in these tests, tags left out. Where a name states a change or a piece, a line headed by the entry shows the natural chain unless it says otherwise.
UniProt P11388: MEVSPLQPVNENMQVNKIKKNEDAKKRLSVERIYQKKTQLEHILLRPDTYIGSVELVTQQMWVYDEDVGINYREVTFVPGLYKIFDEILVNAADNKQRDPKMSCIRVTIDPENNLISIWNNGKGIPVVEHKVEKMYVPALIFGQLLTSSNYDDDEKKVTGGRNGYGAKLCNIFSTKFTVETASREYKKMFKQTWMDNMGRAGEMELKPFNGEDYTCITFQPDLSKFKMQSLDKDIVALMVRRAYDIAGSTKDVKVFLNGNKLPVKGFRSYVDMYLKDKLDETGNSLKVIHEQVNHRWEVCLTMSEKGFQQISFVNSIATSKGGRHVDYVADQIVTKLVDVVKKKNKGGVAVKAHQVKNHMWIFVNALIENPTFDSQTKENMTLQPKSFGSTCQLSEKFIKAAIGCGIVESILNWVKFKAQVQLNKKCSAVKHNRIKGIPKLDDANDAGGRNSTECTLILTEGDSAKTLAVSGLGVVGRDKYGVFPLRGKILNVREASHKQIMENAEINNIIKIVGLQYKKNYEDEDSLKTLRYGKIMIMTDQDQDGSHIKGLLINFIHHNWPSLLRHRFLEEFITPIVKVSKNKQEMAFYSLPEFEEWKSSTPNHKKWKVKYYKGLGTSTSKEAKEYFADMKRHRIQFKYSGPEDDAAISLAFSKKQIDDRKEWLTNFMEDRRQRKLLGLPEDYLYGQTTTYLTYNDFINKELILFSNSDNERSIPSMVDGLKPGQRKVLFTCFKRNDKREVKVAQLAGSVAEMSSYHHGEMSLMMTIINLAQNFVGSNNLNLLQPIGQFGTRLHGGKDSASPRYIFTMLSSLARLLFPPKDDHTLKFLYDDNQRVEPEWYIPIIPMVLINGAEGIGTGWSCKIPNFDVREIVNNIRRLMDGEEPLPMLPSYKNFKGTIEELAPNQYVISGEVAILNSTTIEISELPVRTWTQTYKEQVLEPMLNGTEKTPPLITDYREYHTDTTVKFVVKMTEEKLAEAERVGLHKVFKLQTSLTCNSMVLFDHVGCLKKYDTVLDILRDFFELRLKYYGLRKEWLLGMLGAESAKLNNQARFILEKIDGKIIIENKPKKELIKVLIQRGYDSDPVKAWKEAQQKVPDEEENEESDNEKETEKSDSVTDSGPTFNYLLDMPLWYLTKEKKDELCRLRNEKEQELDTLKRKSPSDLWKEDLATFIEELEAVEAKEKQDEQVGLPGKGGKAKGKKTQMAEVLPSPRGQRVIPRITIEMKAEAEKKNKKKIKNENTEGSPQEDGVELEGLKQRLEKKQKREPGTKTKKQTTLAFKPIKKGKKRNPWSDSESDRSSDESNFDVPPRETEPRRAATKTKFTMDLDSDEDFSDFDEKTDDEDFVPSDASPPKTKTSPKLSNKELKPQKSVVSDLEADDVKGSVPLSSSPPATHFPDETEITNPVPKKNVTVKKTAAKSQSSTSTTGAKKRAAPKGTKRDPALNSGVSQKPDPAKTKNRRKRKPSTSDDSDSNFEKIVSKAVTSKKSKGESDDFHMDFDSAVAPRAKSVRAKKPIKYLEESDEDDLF

Target: T1, topoisomerase II (Homo sapiens, UniProt P11388)
T1 construct: purchased TopoGEN, Inc., Port Orange, Fla
Assay: Topoisomerase II drug screening kit (relaxation of plasmid DNA)
Assay type: biochemical
Parameters: key: — none; + low; ++ moderate; +++ strong
Details: 100 μM drug compound; topoisomerase II (4U), 500 ng plasmid DNA
Description: In order to determine the effect of the makaluvamine derivatives of the present disclosure, the synthesized makaluvamine derivatives were screened for their ability to inhibit topoisomerase II activity in vitro. Topoisomerase II functions by generating a double-stranded DNA break followed by resealing of the break. Topoisomerase II inhibitors interfere with the breakage-rejoining reaction thereby trapping the enzyme in a cleavage complex. In order to determine if the disclosed makaluvamine derivatives inhibited topoisomerase II activity, nine of the derivatives were tested for topoisomerase II inhibitory activity using a topoisomerase-II drug screening kit (TopoGEN, Inc., Port Orange, Fla.) according to the manufacturer's instructions. The screening kit uses a supercoiled plasmid DNA substrate (pRYG) which contains one topoisomerase II cleavage/recognition site. […] Relaxed DNA was separated using non-ethidium bromide (EtBr) agarose gels, then stained with EtBr and quantified using Kodak Gel Logic Imaging System and Molecular Imaging software (Eastman Kodak Co., Rochester, N.Y.). Inhibition of relaxation of plasmid DNA or catalytic activity was reported as; − none, + low, ++ moderate, or +++ strong.

Q: With `COc1cc([C@@H]2c3cc4c(cc3[C@@H](O[C@@H]3O[C@@H]5CO[C@@H](C)O[C@H]5[C@H](O)[C@H]3O)[C@H]3COC(=O)[C@H]23)OCO4)cc(OC)c1O` [Etoposide, reference compound] as the molecule, how does the “Topoisomerase II Inhibition” value read?
A: +
